Tests used:
[1] = target: T1, human MET, cell-surface expressed (human, UniProt P08581 25-1390); experiment: cell-based or functional assay
[2] = target: MET without the 47 amino acids encoded by exon 14 (H596 cells) (human, UniProt P08581 25-1390); experiment: cell-based or functional assay
[3] = target: T2, human MET-ECD with a His tag (MET-ECD-His) (human, UniProt P08581 25-932); experiment: ELISA on recombinant MET-ECD
T2 construct: The ELISA sections speak of MET-ECD, MET-ECD-His or His-tagged MET extracellular domain; also called hu-MET-ECD; human cMET ECD

[4] = target: T2, human MET-ECD with a His tag …; experiment: ELISA on coated human MET-ECD
Experimental: To measure antibody binding by ELISA, 10 μg of human, murine or chimeric MET-ECD was coated onto 96-well plates (Costar). Serial dilutions of antibodies were added to the plates and incubated at room temperature for 1 hr prior to the addition of HRP-conjugated secondary antibody. Luminescence was measured with BioTek SYNERGY™ HT plate reader, and binding EC₅₀ values were determined using […] PRISM® software.

[5] = target: T1, human MET, cell-surface expressed; experiment: FACS on A549 cells, cell surface MET
[6] = target: T1, human MET, cell-surface expressed; experiment: FACS competition on A549 cells; competitor Alexa-647-labelled Ab235
[7] = target: T2, human MET-ECD with a His tag …; experiment: ELISA, immobilised His-tagged MET ECD; displacement of biotinylated HGF (0.3 nM)

IC50, HGF-induced DU145 cell scatter [1]: ~0.24 nM | IC50, HGF-induced phosphorylation of MET Tyr1234/Tyr1235, ELISA, A549 cells [1]: ~0.09 nM | IC50, MET Tyr1234/Tyr1235 phosphorylation, ELISA, U87MG cells [1]: ~0.044 nM | IC50, tumor cell proliferation with HGF, A549 cells [1]: ~4.4 nM | IC50, tumor cell proliferation with HGF, U87MG cells [1]: ~19 nM | IC50, tumor cell proliferation with HGF, H596 cells [2]: ~0.2 nM | EC50 [3]: 0.5 nM | EC50 [4]: 0.04 nM | EC50 [5]: 0.2 nM | IC50 [6]: ~0.8 nM | IC50 [7]: ~0.3 nM
B1: Ab239 (antibody, rat IgG2a, V domains shown)
VH: EVQLVESGGGLVQPGRSLKLSCAASGFSFTDCYMAWVRQAPTKGLEWVASISSDGGGTYYRDSVKGRFTISRDNARSSLYLEMDSLRSEDTATYYCTTERYYDGTYYGYWYFDFWGPGTMVTVSA
VL: GQFTLTQPKSVSGSLRSTITIPCVRSSGDIGDRYVSWYQQRLGRPPLNVIYAADQRPSEVSDRFSGSIDSSSNSASLTITDLQMDDEADYFCQSYDSNIDIVFGGGTKLEIKR
notes: Rat IgG2a, lambda
